In patent US9822179B2, “Recombinant TNF ligand family member polypeptides with antibody binding domain and uses therefor” (UNIVERSITAT STUTTGART, priority 2011, dated 2017):

How the values were obtained:
Colo205 xenograft tumor = Colo205 xenograft tumor model; details: for cases with macroscopically undetectable tumors: n=12 tumors/group
[1] = Alanine aminotransferase (ALT) activity in plasma of treated mice; assay type: in vivo, CD1 mice; details: i.p.
Procedure: FIG. 9: EGFR specific TRAIL fusion proteins lack hepatotoxic activity. Groups of 3 CD1 mice were treated intraperitonally with indicated fusion proteins or control reagents: negative control: PBS; positive control: aggregated FasL (CD95L) fusion protein. • (A) Plasma samples were prepared after 4 h and 24 h and the activity of alanine aminotransferase (ALT) was assayed using an enzymatic assay (Bioo Scientific, Austin, Tex.). Dashed line indicates upper normal level of ALT (physiologic range in adult human: 35-50 U/L). (B) Mice were sacrificed after 24 h except for positive control (animals treated with an aggregated FasL (CD95L) fusion protein show phenotypic signs of severe systemic toxicity after 2-4 hrs and die after ˜5 hrs, samples were taken after 4 hrs) and liver biopsies were taken for determination of caspase-3 activity using a specific AMC-coupled peptide substrate (Enzo Lifesciences, Lörrach, Germany).
Blood samples were taken from the tail after 4 h and 24 h and incubated on ice. […] Activity of alanine aminotransaminase was determined by an enzymatic assay (BIOO Scientific, Austin, Tex., USA). […] 10 μg of protein were analyzed by conversion of the fluorogenic substrate Ac-DMQD-AMC (Enzo Life Sciences). Caspase activity in PHH and Huh-7 cells was determined as published by Seidel et al. (Hepatology 2005, 42:113-120). […]

[2] = tested on: primary human hepatocytes (PHH); test: Caspase activation in primary human hepatocytes; assay type: cell-based; details: combination with bortezomib
Text: FIG. 14: In vitro tolerance of TRAIL fusion proteins to primary tissues. […] Asterisks indicate statistical significance.
Caspases were detected by immunoblotting using a rabbit polyclonal antibody against cleaved caspase-3 (Cell Signaling Technology). GAPDH as internal control was detected with a rabbit polyclonal antibody (Cell Signaling Technology). HRP-conjugated secondary antibodies (Zymed Laboratories, San Fransisco, Calif., USA) and ECL were used for visualization.
Blood samples were taken from the tail after 4 h and 24 h and incubated on ice. Clotted blood was centrifuged (10 000 g, 10 min, 4° C.) and serum samples were stored at −80° C. Activity of alanine aminotransaminase was determined by an enzymatic assay (BIOO Scientific, Austin, Tex., USA). To determine caspase-3 activity in the liver tissue, mice were sacrificed after 24 h (positive control after 5 h) and liver biopsies were taken. Homogenates were prepared in lysis buffer (200 mM NaCl, 20 mM Tris, 1% NP-40, pH 7.4). 10 μg of protein were analyzed by conversion of the fluorogenic substrate Ac-DMQD-AMC (Enzo Life Sciences). Caspase activity in PHH and Huh-7 cells was determined as published by Seidel et al. (Hepatology 2005, 42:113-120).

Huh-7 cells = test: Growth of Huh-7 cells over three days, MTT; assay type: cell-based; details: with pan-caspase inhibitor (10 μM zVADfmk)
Procedure: After 16 h, cell viability was determined using MTT staining (Colo 205) or crystal violet staining (Huh-7) and data were normalized using bortezomib-treated cells as control (mean SEM, n=3). (B) 1×10^4 Colo205 cells per well were grown in 96-well plates using medium with 0.1% FCS. […] (C) 1×10^4 Huh-7 cells per well were grown in 96-well plates and treated with 20 ng/ml bortezomib or with a combination of bortezomib and 10 μM zVADfmk.

B1: SEQ ID NO: 102: EGFR-specific VH-VL-scTRAIL fusion protein with linker L shortened to GGGGS; divalent, dimeric TRAIL fusion protein (protein)
chain: MDWTWRVFCLLAVAPGAHSLEASDYKDDDDKGAEVQLVESGGGLVQPGGSLRLSCAASGFSLTNYGVHWVRQAPGKGLEWLGVIWSGGNTDYNTPFTSRFTISRDNSKNTLYLQMNSLRAEDTAVYYCARALTYYDYEFAYWGQGTTVTVSSGGGGSDIQLTQSPSFLSASVGDRVTITCRASQSIGTNIHWYQQKPGKAPKLLIKYASESISGVPSRFSGSGSGTEFTLTISSLQPEDFATYYCQQNNNWPTTFGAGTKLEIKRAAAEFTRGTSEETISTVQEKQQNISPLVRERGPQRVAAHITGTRGRSNTLSSPNSKNEKALGRKINSWESSRSGHSFLSNLHLRNGELVIHEKGFYYIYSQTYFRFQEEIKENTKNDKQMVQYIYKYTSYPDPILLMKSARNSCWSKDAEYGLYSIYQGGIFELKENDRIFVSVTNEHLIDMDHEASFFGAFLVGGGGSGGGSTSEETISTVQEKQQNISPLVRERGPQRVAAHITGTRGRSNTLSSPNSKNEKALGRKINSWESSRSGHSFLSNLHLRNGELVIHEKGFYYIYSQTYFRFQEEIKENTKNDKQMVQYIYKYTSYPDPILLMKSARNSCWSKDAEYGLYSIYQGGIFELKENDRIFVSVTNEHLIDMDHEASFFGAFLVGGGGSGGGSTSEETISTVQEKQQNISPLVRERGPQRVAAHITGTRGRSNTLSSPNSKNEKALGRKINSWESSRSGHSFLSNLHLRNGELVIHEKGFYYIYSQTYFRFQEEIKENTKNDKQMVQYIYKYTSYPDPILLMKSARNSCWSKDAEYGLYSIYQGGIFELKENDRIFVSVTNEHLIDMDHEASFFGAFLVG
modifications: VH-VL(EGFR)-scTRAIL fusion protein
cases with macroscopically undetectable tumors (Colo205 xenograft tumor; 0.45 nmol i.p. x 8, +bortezomib): 11/12 | cases with macroscopically undetectable tumors (Colo205 xenograft tumor; 0.45 nmol i.p. x 8, w/o bortezomib): 9/12 | tumor size and survival (Colo205 xenograft tumor; 8 daily i.p. injections of 0.45 nmol, with or without bortezomib): strong reduction of tumor size and prolonged survival in all animals | ALT values ([1]; 4 hrs after application): only a transient marginal increase in ALT values to the upper normal limit | ALT values ([1]; after 24 hrs): baseline ALT | cleaved caspase-3 by immunoblot [2]: no detectable caspase activation | growth inhibition when apoptosis is prevented (Huh-7 cells): only a marginal growth inhibition
